Data on 1 compound can be found in US8889709B2, “Use of isoQC inhibitors in the treatment and prevention of inflammatory diseases or conditions” (Probiodrug AG, priority 2006, dated 2014).

By UniProt entry, the sequences of proteins in these tests, tags left out. Residues count along the entry.
UniProt Q9NXS2, 48-382 I73N/C369A: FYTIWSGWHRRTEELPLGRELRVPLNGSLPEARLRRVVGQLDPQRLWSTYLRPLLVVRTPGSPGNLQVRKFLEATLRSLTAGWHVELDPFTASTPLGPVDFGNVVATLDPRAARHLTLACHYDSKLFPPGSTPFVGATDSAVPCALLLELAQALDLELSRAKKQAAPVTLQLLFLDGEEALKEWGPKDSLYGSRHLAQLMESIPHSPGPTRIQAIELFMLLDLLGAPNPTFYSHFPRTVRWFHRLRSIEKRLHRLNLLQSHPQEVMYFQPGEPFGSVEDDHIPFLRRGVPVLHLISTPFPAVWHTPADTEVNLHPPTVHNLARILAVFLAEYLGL

In this experiment the target is human isoQC (Homo sapiens, UniProt Q9NXS2, C369A/I73N). Nature of the experiment: Inhibitor assay, human isoQC (Ki/IC50, competitive inhibition).

As to `c1c[nH]cn1` [Imidazole], affinity was put at a Ki of 235 ± 13 µM.
